{"source": "PubChem BioAssay AID602274", "about": "(Sanford-Burnham Center for Chemical Genomics, 2012)", "note": "The entries are a selection whose mix differs from that of the whole data set. Some results for these compounds are left out of this collection, so the calls shown say nothing about other tests. Activity calls are given as the source filed them. Cut-off read from the data, not from the text of the source: active = survival enhancement above about 18%; inactive = the rest.", "data": [{"assay": "enhancers of single-cell hiPSC survival, primary screen, ATPlite luminescence (AID 602274);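 note: cells exposed to compounds for 16 hours before the ATP read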", "conditions": "at 20 µM, active compounds read high, 100% = ROCK inhibitor wells, 0% = DMSO", "values": [{"smiles": "COc1cccc(C(=O)NCC2(N3CCCCC3)CCCCC2)c1", "survival enhancement": "inactive: -0.7%"}, {"smiles": "COc1ccc(Cl)cc1C(=O)NCC1(N(C)C)CCCCC1", "survival enhancement": "inactive: -0.6%"}, {"smiles": "O=C(NCC1(N2CCCCC2)CCCCC1)c1cccc(Cl)c1", "survival enhancement": "inactive: 0.5%"}, {"smiles": "CN(C)C1(CNC(=O)c2ccc(Br)cc2)CCCCC1", "survival enhancement": "inactive: -0.4%"}, {"smiles": "COc1cc(C(=O)NCC2(N(C)C)CCCCC2)c([N+](=O)[O-])cc1OC", "survival enhancement": "inactive: 0%"}, {"smiles": "C=C(C)C#CC(O)(C(=O)OC1CCN(C)CC1)c1ccccc1", "note": "(stereo unspecified)", "survival enhancement": "inactive: 5.2%"}, {"smiles": "COc1ccc(Br)c(C(=O)NCC2(N3CCCCC3)CCCCC2)c1", "survival enhancement": "inactive: -0.5%"}, {"smiles": "CC(C)Oc1ccc(C(=O)NCC2(N(C)C)CCCCC2)cc1", "survival enhancement": "inactive: -0.4%"}, {"smiles": "O=C(OCCN1CCCC1)C(O)(c1ccccc1)c1ccccc1", "survival enhancement": "inactive: 3%"}, {"smiles": "CN(C)c1cccc(C(=O)NCC2(N(C)C)CCCCC2)c1", "survival enhancement": "inactive: -3.2%"}, {"smiles": "O=C(OC1CN2CCC1CC2)C(CO)(c1ccccc1)c1ccccc1", "note": "(stereo unspecified)", "survival enhancement": "inactive: -2.3%"}, {"smiles": "CCN(CC)CC(C)C(C)OC(=O)C(O)(c1ccccc1)c1ccccc1", "note": "(stereo unspecified)", "survival enhancement": "inactive: -0.2%"}, {"smiles": "COc1cc(SC)ccc1C(=O)NCC1(N(C)C)CCCCC1", "survival enhancement": "inactive: -0.1%"}, {"smiles": "CC(C)N1C(=O)CC2(CCN(CCOC(=O)C(O)(c3ccccc3)c3ccccc3)CC2)C1=O", "survival enhancement": "inactive: 0.8%"}, {"smiles": "Cc1ccc(C(=O)NCC2(N3CCCCC3)CCCCC2)cc1", "survival enhancement": "inactive: -0.1%"}, {"smiles": "O=C(NCC1(N2CCCCC2)CCCCC1)c1cc([N+](=O)[O-])ccc1Cl", "survival enhancement": "inactive: -0.5%"}, {"smiles": "CN1[C@@H]2CC[C@H]1CC(OC(=O)C(O)(c1ccccc1)c1ccccc1)C2", "note": "(stereo partly specified)", "survival enhancement": "inactive: 0.2%"}, {"smiles": "C=CCN1CCN(CCOC(=O)C(O)(c2ccccc2)c2ccccc2)CC1", "survival enhancement": "inactive: 3.1%"}, {"smiles": "O=C(NCC1(N2CCCCC2)CCCCC1)c1cc(F)c(F)cc1Cl", "survival enhancement": "inactive: -0.6%"}, {"smiles": "COc1ccc(C(=O)NCC2(N(C)C)CCCCC2)cc1", "survival enhancement": "inactive: -0.8%"}, {"smiles": "CCN1CCCC(OC(=O)C2(O)c3ccccc3C=Cc3ccccc32)C1", "note": "(stereo unspecified)", "survival enhancement": "inactive: -0.5%"}, {"smiles": "Cc1cc(C(=O)NCC2(N3CCCCC3)CCCCC2)ccc1[N+](=O)[O-]", "survival enhancement": "inactive: -0.6%"}, {"smiles": "O=C(NCC1(N2CCCCC2)CCCCC1)c1cccc(Br)c1", "survival enhancement": "inactive: -0.6%"}, {"smiles": "Cc1ccccc1C(=O)NCC1(N2CCCCC2)CCCCC1", "survival enhancement": "inactive: 0.2%"}, {"smiles": "CN(C)c1ccc(C(=O)NCC2(N(C)C)CCCCC2)cc1", "survival enhancement": "inactive: -0.4%"}, {"smiles": "CN(C)C1CCCC1OC(=O)C(O)(c1ccccc1)c1ccccc1", "note": "(stereo unspecified)", "survival enhancement": "inactive: -3.2%"}]}]}
